Test results: patent publication US9079974B2, “GH-RH analogs with potent agonistic effects” (The University of Miami, priority 2011, dated 2015)

Key:
GHRH receptor [1] = molecular target: T1, GHRH receptor (Homo sapiens, UniProt Q02643); experiment: GHRH receptor binding, 125I-labeled JV-1-42 ligand competition, human pituitary membrane homogenates (Table 5); conditions: human pituitary membranes
T1 construct: Normal human pituitaries were purchased from the National Hormone and Peptide Program; tissue National Hormone and Peptide Program (A. F. Parlow); host or cells: normal human pituitary, membrane fraction
T1 sequence (Q02643 23-423): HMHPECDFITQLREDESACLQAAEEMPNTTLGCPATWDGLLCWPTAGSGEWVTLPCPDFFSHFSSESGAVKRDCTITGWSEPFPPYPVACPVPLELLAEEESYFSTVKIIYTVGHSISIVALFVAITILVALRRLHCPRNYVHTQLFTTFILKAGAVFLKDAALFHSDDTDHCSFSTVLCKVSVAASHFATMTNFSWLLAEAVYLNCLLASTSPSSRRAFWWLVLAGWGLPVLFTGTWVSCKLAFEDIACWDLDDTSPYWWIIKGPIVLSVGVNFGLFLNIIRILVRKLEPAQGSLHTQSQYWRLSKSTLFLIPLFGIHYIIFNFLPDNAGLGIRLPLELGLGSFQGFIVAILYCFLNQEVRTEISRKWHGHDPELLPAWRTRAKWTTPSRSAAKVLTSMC
Description: (§1) Receptor binding assay Ligand competition assay with ^125I-labeled [His^1, Nle^27]hGH-RH(1-32)-NH2 was used to determine the binding affinities of the novel hGH-RH agonists to membrane receptors of rat anterior pituitary cells. The methods used have been described in detail (Halmos G, et al. Receptor 3: 87-97, 1993), here by incorporated by reference. Briefly, radioidonated [His^1, Nle^27]hGH-RH(1-32)-NH2 is prepared by the chloramines-T method. […] Relative affinities were compared to hGH-RH(1-29) and/or analog JI-38 (Izdebski J, et al. Proc. Natl. Acad. Sci. 92: 4872-4876, 1995) and calculated as the ratio of IC50 of the tested peptide to the IC50 of the standard. IC50 is the dose of the tested peptides causing 50% inhibition of specific binding to receptors.
Preparation of human pituitary membrane fraction and receptor binding of GHRH agonists were performed as previously described, by using a sensitive in vitro ligand competition assay based on binding of ^125I-labeled JV-1-42 to human pituitary membrane homogenates. Normal human pituitaries were purchased from the National Hormone and Peptide Program (A. F. Parlow, Los Angeles, County Harbor-UCLA Medical Center, Torrance, Calif.). […]
The final binding affinities were expressed as IC50 values and were calculated by using the LIGAND PC computerized curve-fitting program of Munson and Rodbard as modified by McPherson.

GHRH receptor [2] = molecular target: T1, GHRH receptor; experiment: GHRH receptor binding, [His1,125I-Tyr10,Nle27]hGHRH(1-32)NH2 ligand competition, human pituitary membrane homogenates (Table 6); conditions: human pituitary membranes
Description: as §1
Preparation of human pituitary membrane fraction and receptor binding of GHRH agonists were performed as previously described, by using a sensitive in vitro ligand competition assay based on binding of ^125I-labeled [His^1, Nle^27]hGHRH(1-32)NH2 to human pituitary membrane homogenates. Normal human pituitaries were purchased from the National Hormone and Peptide Program (A. F. Parlow, Los Angeles, County Harbor—UCLA Medical Center, Torrance, Calif.).

hGH-RH(1-29)NH2 [GHRH (1-29)]
IC50 (GHRH receptor [1]): 4.06 nM | IC50 (GHRH receptor [2]): 5.92 nM
